Chains of the proteins cited; added tags and fusions are not shown. Residues count along the entry.
UniProt P01586, 27-166 limits assumed: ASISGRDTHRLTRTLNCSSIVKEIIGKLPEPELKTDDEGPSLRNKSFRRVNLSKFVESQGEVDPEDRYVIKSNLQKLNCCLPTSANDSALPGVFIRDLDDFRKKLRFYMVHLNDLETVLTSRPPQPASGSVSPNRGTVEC

In patent publication US20020173481A1:

Biological target: endogenous IL-3 receptor of 32Dcl3 cells
Experiment: cell-based or functional assay

kinase activity of Bmx in 32Dcl3 cells: 2.2 fold
Substance: Mouse IL-3 (from UniProt P01586 27-166) (ligand)
